Measurements as given in PMC10064817, “Absolute oral bioavailability and possible metabolic pathway of panduratin A from Boesenbergia rotunda extract in beagle dogs” (Pharmaceutical Biology, 2023).

Settings: dog, in vivo, iv, 1 mg/kg

COc1cc(O)c(C(=O)[C@@H]2[C@H](CC=C(C)C)C(C)=CC[C@H]2c2ccccc2)c(O)c1 [Panduratin A, panduratin A]
Body weight: 12.30 ± 1.21
